{"source": "paper PMC12666569", "about": "“The Pseudomonas aeruginosa membrane histidine kinase BqsS/CarS directly senses environmental ferrous iron (Fe^2+)” (The Journal of Biological Chemistry, 2025)", "test_system": "Nc1ncnc2c1ncn2[C@@H]1O[C@H](COP(=O)(O)OP(=O)(O)OP(=O)(O)O)[C@@H](O)[C@H]1O", "experiment": "purified protein", "settings": "5.0 mM Mg2+, 37 °C, SEC buffer pH 7.5, no added Fe2+", "data": [{"substance": "cytoBqsS (cyto-PaBqsS, cytoPaBqsS) (Pseudomonas aeruginosa PAO1)", "values": [{"measurement": "Km", "result": "244.34 ± 17.28", "unit": "µM"}]}]}
